Results from patent US6602880B2, “3-phenyl-3,7-diazabicyclo[3.3.1] nonane compounds, process for preparing them, pharmaceutical compositions containing them and use thereof to inhibit cardiac arrhythmia” (priority 2001, dated 2003).

Amino acid sequences for entries named in this document (tags omitted). Residues count along the entry.
UniProt Q12809, whole entry: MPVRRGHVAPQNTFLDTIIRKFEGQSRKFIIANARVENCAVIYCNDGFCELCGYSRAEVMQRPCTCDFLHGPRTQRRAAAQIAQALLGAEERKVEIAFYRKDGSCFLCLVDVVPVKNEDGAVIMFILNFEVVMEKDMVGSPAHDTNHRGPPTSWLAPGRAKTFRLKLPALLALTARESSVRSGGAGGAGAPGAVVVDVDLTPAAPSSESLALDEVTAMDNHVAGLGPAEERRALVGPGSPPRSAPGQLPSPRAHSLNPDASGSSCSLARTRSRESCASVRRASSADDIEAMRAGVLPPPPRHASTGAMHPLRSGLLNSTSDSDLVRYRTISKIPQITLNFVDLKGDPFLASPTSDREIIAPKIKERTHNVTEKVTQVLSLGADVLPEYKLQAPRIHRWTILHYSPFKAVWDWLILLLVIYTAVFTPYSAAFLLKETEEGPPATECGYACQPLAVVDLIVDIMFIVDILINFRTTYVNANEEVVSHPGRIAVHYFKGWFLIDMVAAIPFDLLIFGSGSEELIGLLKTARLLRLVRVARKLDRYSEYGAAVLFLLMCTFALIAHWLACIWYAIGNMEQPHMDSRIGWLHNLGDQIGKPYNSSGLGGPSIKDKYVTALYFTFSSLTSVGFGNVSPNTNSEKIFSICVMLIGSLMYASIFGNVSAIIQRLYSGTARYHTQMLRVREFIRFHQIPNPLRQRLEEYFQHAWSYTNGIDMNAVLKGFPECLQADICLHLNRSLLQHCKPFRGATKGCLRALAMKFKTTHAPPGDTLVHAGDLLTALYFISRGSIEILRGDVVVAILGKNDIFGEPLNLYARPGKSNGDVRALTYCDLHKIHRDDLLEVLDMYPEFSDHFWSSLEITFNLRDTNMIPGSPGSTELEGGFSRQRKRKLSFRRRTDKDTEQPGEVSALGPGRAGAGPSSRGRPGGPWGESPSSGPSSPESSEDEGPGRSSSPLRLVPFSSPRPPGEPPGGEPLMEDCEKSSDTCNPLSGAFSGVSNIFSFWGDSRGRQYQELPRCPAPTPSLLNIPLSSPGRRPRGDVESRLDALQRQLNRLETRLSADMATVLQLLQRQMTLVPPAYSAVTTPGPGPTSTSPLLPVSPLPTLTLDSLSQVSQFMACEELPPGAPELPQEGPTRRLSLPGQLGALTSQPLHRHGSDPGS
UniProt A0A8I3N8W8, 1-676: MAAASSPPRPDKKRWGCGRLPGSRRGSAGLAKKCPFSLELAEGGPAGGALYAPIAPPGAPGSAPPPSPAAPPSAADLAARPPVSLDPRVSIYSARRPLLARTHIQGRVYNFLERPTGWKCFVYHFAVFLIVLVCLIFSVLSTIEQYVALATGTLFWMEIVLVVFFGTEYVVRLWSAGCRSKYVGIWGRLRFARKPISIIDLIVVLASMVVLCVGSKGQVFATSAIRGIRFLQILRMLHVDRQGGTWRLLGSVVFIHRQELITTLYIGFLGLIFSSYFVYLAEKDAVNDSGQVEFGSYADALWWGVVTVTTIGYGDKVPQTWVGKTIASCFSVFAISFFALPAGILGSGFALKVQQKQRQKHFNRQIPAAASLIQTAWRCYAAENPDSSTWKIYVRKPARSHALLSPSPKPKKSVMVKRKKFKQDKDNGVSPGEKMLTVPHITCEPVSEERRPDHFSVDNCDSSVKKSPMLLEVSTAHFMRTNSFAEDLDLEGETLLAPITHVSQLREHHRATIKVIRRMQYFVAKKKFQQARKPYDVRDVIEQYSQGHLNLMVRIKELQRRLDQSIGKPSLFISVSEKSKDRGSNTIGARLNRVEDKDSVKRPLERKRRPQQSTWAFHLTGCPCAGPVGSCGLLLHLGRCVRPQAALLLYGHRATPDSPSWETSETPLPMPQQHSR

Experiments:
[1] = system: isolated papillary muscle of the right ventricle of guinea pigs; assay: In vitro functional refractory period on electrically stimulated papillary muscles from guinea-pig hearts; details: concentration prolonging FRP by 12 milliseconds; stimulation 3 Hz; 20 minutes after addition; tested form: hydrogen tartrate
iKr (HERG) = iKr (HERG) (Homo sapiens, UniProt Q12809); assay: Blocking action on rapid delayed rectifier potassium current iKr (HERG), HEK293 cells stably transfected; details: read-out: IC50 % - iKr; HEK293 cells stably transfected with HERG; tested form: hydrogen tartrate
Method: The iKr (HERG) can be measured selectively in the manner stated below: to measure the iKr, a cell line (human embryonal kidney cells, HEK293; see e.g. American Tissue Culture Collection (=ATCC) No.: CRL-1573) is used, which is stably transfected with the gene for the iKr (HERG) (cf. Z. Zhou et al., Biophysical Journal 74(1) (1998) 230-241). […] The iKr is determined using the current amplitude at −40 mV holding potential immediately after a 500 ms pulse protocol of −75 mV holding potential at most +10 mV depolarisation. That substance concentration at which 50% of the maximum current is blocked (IC50 %) is determined from the inhibitions of the corresponding current at different substance concentrations.

iKs = iKs (Canis lupus familiaris, UniProt A0A8I3N8W8); assay: Blocking action on slow delayed rectifier potassium current iKs, whole-cell patch-clamp on dog cardiac muscle cells; type: cell-based; details: read-out: IC50 % - iKs; dog left ventricle cardiac muscle cells; 1 μM nisoldipine and 2 μM E-4031 added; holding potential -40 mV; tested form: hydrogen tartrate
Method: The iKs can be measured selectively in the manner described below: the hearts are quickly removed from anaesthetised dogs and a muscle section from the left ventricle is perfused with collagenase-containing solution via an arterial vessel. The well-dissociated tissue is comminuted and the individualised cardiac muscle cells are investigated electrophysiologically using the “whole-cell patch-clamp” method (cf. O. P. […] The iKs is then determined using the current amplitude immediately after a 5-second pulse protocol of -40 mV holding potential at most +50 mV depolarisation. The iKr (HERG) can be measured selectively in the manner stated below: to measure the iKr, a cell line (human embryonal kidney cells, HEK293; see e.g. American Tissue Culture Collection (=ATCC) No.: CRL-1573) is used, which is stably transfected with the gene for the iKr (HERG) (cf. Z. Zhou et al., Biophysical Journal 74(1) (1998) 230-241). […] The iKr is determined using the current amplitude at -40 mV holding potential immediately after a 500 ms pulse protocol of -75 mV holding potential at most +10 mV depolarisation. That substance concentration at which 50% of the maximum current is blocked (IC50 %) is determined from the inhibitions of the corresponding current at different substance concentrations.

In the case of `CCCCN1CC2CN(c3ccc(C(C)=O)cc3)CC(C1)C21CCCC1`, the “Antiarrhythmic action FRP-EC+12 ms” value [1] is reported as 0.6 µmol/L, the IC50 (iKr (HERG)) is reported as 0.09 µM and the IC50 (iKs) is reported as 0.7 µM.
